ChEMBL document CHEMBL2151016, “Synthesis and in vitro antiproliferative activity of new 11-aminoalkylamino-substituted chromeno[2,3-b]indoles” (Eur J Med Chem, 2012)

Test system: Nucleic Acid
Assay: Binding affinity to salmon fish sperm DNA by UV-vis spectrophotometric analysis
Type: nucleic-acid assay
Settings: Salmonidae

- K: 2.79 ×10⁴ L/mol
SMILES: COc1ccc2oc3nc4ccccc4c-3c(NCCCN)c2c1
